B1: 172P1D3 (VHH)
VHH: QVQLVESGGGLVQAGGSLRLSCAASGRITSYYGVGWFRQAPGKGREFVAVVTWNAGITFYADSVKGRFTISRDNAKNTVYLQMNGLKPEDTAVYYCAAGVFRARGYTLSGEYEYWGQGTQVTVS
notes: also called Clone 172P1D3
B2: Clone 172P2E8 (VHH)
VHH: QVQLVESGGGLVQDGGSLRLACVASRSTRDINSMGWYRQAPGEQREFVASIGWQGATVYADSVEGRFTISRDDAKNTLYLQMNSLKPEDTAVYYCGADWRTYGYFYWGQGTQVTVS
notes: Any tag from the phage display vector is not specified for this assay
B3: 172P2D9 (VHH)
VHH: QLVESGGGLVQDGDSLRLACAASATTVDINSMGWYRQAPGKQRELVASINTRGCTVYTDSVEGRFIIYRDDTKNTLYLQMYSLKSEDTAVYYCGADWRTNGYFYWGQGTQVIVS
notes: also called Clone 172P2D9
B4: 173B1 (VHH)
VHH: QVQLVESGGGLVQAGGSLRLSCVASGRIFSPNDMGWYRQVPGKQRELVAGMSSRGFTQYAESMEGRVTISRNNAENTAYLQMNGLQPDDTAVYYCYLWTEGHNFWGQGTQVTVS
notes: also called Clone 173B1
B5: 173B10 (VHH)
VHH: QVQLVESGGGLVQAGGSLRLSCVASGKIFSPNDMGWYRQVPGKQRELVAAMSSRGFTNYAESLTDRFTVSRDNAKNTVYLQMNGLKPDDTAVYYCYLWTAGDNFWGQGTQVTVS
notes: also called Clone 173B10
B6: 175G2 (VHH)
VHH: QVQLVESGGGLVQAGGSLRLSCAASGIIFNTHTMAWYRQAPGKQRELVGRITFTGRTIYILDAVKGRFSISRNTADNTLTLQMNSLKPEDTAVYYCQTRNIRNNNENWGQGTQVTVS
notes: also called Clone 175G2
B7: 175H11 (VHH)
VHH: QVQLVESGGGLVQAGGSLRLSCAASGRTLSRYAISWFRQAPGKEREFVGRITWSGSTNIADSVKGRFTISRDNAKNTVYLQMNSLKPEDTAVYYCAAAPYGTMSYDYWGQGTQVSVS
notes: also called Clone 175H11

The chains behind the UniProt entries cited, without tags or fusion partners. A line that says so, or that is headed by a name, gives the form on record, which may keep a tag or linker. Residues count along the entry.
UniProt P69905, 2-142 limits assumed, chain 1 of 2: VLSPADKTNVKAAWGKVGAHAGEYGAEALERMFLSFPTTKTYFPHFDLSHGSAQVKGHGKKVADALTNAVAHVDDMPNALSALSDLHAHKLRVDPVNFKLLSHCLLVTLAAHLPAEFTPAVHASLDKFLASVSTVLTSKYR
hemoglobin A (alpha2 beta2), UniProt P68871, 2-147 limits assumed, chain 2 of 2: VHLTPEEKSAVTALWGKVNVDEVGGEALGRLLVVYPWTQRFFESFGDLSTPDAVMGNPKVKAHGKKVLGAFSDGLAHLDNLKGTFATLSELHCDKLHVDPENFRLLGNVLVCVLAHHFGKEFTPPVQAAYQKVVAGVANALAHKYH
hemoglobin S (alpha2 betaS2), UniProt P68871, other isoform, or with tags, fused parts or gaps limits assumed, chain 2 of 2: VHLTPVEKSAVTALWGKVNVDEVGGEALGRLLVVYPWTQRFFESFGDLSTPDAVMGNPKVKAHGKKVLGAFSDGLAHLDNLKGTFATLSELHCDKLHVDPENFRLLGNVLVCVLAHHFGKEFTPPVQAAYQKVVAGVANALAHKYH
hemoglobin A2 (alpha2 delta2), UniProt P02042, 2-147 limits assumed, stated change not applied, chain 2 of 2: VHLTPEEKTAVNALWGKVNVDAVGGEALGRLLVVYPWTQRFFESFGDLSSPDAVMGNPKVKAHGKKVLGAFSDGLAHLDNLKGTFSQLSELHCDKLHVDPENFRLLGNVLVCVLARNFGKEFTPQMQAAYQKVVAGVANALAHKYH

These binders were tested against hemoglobin A (alpha2 beta2) (human, UniProt P69905 2-142; P68871 2-147) (assay: direct ELISA: hemoglobin coated on the plate, antibody produced by the clone applied (concentration not given), HRP goat anti-llama antibody).
Protocol: (§1) In vitro screening was performed using biotinylated peptides specific to each variants and magnetic beads cell sorting. Multiple positive clones for HbA, HbS, and HbA2 were identified. […] Hemoglobin was coated on the plate directly and antibodies produced by each clone were applied and detected with HRP goat anti-llama antibody.

Does B1 bind?
Result: binds

Does B2 bind?
Result: binds

Does B3 bind?
Result: binds

Each binder was assayed against hemoglobin S (alpha2 betaS2) (human, UniProt P69905 2-142; P68871 2-147, Native tetramer alpha2 betaS2 with heme; one copy of each chain is given.) in the same assay as above.
Protocol: as §1

Does B1 bind?
Result: binds

Does B4 bind?
Result: binds

Does B5 bind?
Result: binds

Does B3 bind?
Result: binds

What follows are binders tested against hemoglobin A2 (alpha2 delta2) (human, UniProt P69905 2-142; P02042 2-147) in the same assay as above.
Protocol: as §1

Does B1 bind?
Result: binds

Does B6 bind?
Result: binds

Does B7 bind?
Result: binds

Does B2 bind?
Result: binds

Does B3 bind?
Result: binds
